Legend:
Type in all cases: organism-based
Settings in all cases: in vivo
[1] = Toxicity in po dosed ddY mouse after 3 days by up and down method
[2] = Toxicity in po dosed ddY mouse after 1 week by up and down method
[3] = Toxicity in po dosed ddY mouse after 2 weeks by up and down method

SMILES: O=c1[nH]c(=O)n(C2CCCO2)cc1F (stereo not drawn) [TEGAFUR]
- LD50 at 72 h [1]: 900 mg/kg
- LD50 at 168 h [2]: 860 mg/kg
- LD50 at 336 h [3]: 820 mg/kg

— ChEMBL document CHEMBL3272324, “Studies on antitumor agents, 2. Syntheses and antitumor activities of 1-(tetrahydro-2-furanyl)-5-fluorouracil and 1,3-bis(tetrahydro-2-furanyl)-5-fluorouracil” (J Med Chem, 1978)
